Literature values as cited in PMC8405992.

The chains behind the UniProt entries cited, without tags or fusion partners. Residues count along the entry.
UniProt P38764, 391-642: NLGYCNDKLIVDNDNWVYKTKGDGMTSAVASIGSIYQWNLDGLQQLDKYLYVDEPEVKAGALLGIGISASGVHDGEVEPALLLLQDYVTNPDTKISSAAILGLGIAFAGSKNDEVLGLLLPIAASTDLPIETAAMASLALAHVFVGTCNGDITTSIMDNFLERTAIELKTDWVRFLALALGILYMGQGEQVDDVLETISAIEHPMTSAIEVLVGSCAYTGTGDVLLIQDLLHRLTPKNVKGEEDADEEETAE

Assays:
[1] = target: K11-linked diubiquitin (Homo sapiens) (UniProt P0CG48); assay: NMR titration
[2] = target: K48-linked diubiquitin (Homo sapiens) (UniProt P0CG48); assay: NMR titration

Substance: Rpn1 391-642 (from UniProt P38764)
- Kd [1]: 28 µM
- Kd [2]: 123 µM
